Here are results for one compound from ChEMBL document CHEMBL5257151, “Design, synthesis, and pharmacological evaluation of N-(3-carbamoyl-1H-pyrazol-4-yl)-1,3-oxazole-4-carboxamide derivatives as interleukin-1 receptor-associated kinase 4 inhibitors with reduced potential for cytochrome P450 1A2 induction” (Bioorg Med Chem, 2023).

Protein sequences, listed by entry. Tags and fused reporters are not part of them. Lines headed by an entry give the natural chain unless they say otherwise; changes in a name come on top.
UniProt P49759: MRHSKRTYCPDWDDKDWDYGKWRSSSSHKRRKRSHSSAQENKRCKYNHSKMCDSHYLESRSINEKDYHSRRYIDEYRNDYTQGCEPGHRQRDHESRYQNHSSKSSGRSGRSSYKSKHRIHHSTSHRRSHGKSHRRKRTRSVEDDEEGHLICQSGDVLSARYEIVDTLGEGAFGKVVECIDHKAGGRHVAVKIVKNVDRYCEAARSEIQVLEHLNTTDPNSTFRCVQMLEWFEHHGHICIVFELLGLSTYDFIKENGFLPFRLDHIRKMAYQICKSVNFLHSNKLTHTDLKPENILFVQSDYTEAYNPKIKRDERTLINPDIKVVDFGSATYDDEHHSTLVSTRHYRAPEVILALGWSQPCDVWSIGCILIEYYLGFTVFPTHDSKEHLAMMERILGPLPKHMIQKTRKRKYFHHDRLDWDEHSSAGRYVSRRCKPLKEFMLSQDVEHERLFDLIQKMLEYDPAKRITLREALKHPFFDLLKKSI
UniProt P16234: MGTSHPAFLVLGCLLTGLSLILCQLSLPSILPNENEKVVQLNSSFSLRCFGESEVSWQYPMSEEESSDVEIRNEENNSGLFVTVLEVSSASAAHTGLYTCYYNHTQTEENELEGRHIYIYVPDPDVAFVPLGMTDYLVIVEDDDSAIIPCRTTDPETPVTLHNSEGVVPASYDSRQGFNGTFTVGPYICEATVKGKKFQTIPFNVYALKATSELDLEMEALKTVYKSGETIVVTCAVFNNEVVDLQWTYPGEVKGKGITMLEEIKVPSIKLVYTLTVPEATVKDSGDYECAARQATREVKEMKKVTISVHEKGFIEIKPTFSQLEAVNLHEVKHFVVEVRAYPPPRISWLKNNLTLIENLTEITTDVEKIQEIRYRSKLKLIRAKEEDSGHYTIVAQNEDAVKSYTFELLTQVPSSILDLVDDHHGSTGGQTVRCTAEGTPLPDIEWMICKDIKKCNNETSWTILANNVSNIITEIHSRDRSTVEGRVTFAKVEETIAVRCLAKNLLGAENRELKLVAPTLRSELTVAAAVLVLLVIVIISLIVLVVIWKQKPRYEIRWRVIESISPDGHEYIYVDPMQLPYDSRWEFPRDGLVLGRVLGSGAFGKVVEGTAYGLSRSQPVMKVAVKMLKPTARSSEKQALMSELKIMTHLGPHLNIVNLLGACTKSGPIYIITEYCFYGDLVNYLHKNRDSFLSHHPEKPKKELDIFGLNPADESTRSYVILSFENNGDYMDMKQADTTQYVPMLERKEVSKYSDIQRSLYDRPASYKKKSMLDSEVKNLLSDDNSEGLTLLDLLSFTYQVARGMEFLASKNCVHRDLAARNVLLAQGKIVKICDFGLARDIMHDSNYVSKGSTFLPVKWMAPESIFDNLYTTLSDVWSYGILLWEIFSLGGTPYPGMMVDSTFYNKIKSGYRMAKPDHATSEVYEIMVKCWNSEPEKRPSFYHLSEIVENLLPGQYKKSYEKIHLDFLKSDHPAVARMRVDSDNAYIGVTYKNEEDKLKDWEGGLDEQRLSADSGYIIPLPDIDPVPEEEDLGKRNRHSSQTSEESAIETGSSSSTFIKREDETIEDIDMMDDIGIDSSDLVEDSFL
UniProt P36888, whole entry: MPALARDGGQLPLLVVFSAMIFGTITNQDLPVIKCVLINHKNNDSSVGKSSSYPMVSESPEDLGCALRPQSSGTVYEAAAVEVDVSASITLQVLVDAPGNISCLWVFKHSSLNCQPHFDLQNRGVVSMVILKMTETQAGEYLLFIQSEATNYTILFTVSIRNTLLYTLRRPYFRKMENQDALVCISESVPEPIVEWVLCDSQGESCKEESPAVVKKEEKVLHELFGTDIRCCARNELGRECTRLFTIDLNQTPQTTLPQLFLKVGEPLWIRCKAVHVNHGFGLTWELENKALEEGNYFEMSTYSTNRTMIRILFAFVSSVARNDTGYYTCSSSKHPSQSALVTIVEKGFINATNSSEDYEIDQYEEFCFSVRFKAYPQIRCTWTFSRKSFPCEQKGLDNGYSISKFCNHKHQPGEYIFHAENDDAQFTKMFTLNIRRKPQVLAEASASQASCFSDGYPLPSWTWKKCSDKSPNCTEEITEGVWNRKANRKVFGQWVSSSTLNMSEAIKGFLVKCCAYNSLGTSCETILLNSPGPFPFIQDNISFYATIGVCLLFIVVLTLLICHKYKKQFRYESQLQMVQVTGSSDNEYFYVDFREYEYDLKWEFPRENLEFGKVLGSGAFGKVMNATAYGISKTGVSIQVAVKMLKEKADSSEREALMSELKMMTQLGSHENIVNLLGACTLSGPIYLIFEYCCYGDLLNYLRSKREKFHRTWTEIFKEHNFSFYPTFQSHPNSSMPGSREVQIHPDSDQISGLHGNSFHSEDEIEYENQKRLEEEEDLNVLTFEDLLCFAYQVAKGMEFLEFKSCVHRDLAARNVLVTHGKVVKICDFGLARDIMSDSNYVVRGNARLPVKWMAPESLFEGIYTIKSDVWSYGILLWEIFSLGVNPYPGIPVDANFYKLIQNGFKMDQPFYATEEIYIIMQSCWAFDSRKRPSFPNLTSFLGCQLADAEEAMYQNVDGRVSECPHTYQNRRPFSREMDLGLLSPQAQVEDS
UniProt P07949, whole entry: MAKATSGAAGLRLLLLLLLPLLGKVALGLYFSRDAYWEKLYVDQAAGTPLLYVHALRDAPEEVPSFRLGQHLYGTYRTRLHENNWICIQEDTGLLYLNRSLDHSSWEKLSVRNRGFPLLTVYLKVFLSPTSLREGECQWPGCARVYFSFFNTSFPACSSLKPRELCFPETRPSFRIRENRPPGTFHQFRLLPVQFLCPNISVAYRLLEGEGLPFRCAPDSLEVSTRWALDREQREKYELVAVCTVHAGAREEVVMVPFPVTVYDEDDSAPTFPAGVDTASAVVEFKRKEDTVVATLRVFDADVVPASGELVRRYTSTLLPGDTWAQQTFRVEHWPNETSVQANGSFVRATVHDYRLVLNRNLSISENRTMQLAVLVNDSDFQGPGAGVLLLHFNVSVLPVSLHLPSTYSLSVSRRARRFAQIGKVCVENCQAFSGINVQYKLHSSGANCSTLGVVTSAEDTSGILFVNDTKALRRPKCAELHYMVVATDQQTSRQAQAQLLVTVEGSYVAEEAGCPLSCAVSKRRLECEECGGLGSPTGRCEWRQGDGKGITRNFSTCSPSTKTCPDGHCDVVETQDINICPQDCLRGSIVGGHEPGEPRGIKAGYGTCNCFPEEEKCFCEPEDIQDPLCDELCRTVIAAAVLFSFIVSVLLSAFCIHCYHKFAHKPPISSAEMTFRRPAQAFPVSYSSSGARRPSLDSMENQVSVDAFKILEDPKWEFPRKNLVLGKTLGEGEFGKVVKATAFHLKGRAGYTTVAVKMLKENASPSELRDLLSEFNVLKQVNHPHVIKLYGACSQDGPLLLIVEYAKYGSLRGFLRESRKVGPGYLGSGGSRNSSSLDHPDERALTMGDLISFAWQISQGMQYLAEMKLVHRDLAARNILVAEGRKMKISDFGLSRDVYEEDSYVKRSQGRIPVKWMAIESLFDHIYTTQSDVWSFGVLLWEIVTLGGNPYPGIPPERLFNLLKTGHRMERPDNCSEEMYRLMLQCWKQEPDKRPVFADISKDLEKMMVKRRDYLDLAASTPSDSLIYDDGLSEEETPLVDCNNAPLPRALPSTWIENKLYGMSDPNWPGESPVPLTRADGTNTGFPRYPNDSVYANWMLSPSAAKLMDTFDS

Experiment [1] concerns the target Dual specificity protein kinase CLK1 (Homo sapiens) (UniProt P49759). Description: Inhibition of CLK1 (unknown origin) at 1 uM relative to control.
The target of experiment [2] is Platelet-derived growth factor receptor alpha (Homo sapiens) (UniProt P16234). Kind of experiment: Inhibition of PDGFRalpha (unknown origin) at 1 uM relative to control.
Experiment [3] concerns the target T1, Tyrosine-protein kinase ITK/TSK (Homo sapiens) (UniProt Q08881).
T1 sequence (whole entry): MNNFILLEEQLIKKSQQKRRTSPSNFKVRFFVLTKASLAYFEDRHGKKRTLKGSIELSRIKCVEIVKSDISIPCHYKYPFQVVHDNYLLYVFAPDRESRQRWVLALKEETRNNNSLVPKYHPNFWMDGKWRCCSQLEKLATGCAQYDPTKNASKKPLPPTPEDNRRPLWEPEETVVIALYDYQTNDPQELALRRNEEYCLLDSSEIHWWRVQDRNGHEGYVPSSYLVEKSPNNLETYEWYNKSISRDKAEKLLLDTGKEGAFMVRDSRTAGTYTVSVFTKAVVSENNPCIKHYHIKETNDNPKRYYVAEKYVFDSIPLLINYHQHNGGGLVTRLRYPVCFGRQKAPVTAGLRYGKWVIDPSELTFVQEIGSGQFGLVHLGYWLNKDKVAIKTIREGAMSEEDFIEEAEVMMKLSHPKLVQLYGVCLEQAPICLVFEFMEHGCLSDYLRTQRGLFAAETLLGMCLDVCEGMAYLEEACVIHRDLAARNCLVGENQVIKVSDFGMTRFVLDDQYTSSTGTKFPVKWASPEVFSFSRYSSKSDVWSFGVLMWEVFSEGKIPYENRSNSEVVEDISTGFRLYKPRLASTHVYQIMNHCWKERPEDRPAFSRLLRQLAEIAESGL
Description: Inhibition of ITK (unknown origin) at 1 uM relative to control.

Experiment [4] concerns the target Receptor-type tyrosine-protein kinase FLT3 (Homo sapiens) (UniProt P36888). Description: Inhibition of FLT3 (unknown origin) at 1 uM relative to control.
The target in experiment [5] is Proto-oncogene tyrosine-protein kinase receptor Ret (Homo sapiens) (UniProt P07949). Kind of experiment: Inhibition of RET (unknown origin) at 1 uM relative to control.

Turning to `Cc1cc(-c2nc(C(=O)Nc3cn(C4CCOCC4)nc3C(N)=O)co2)ccn1`, the inhibition (in general, how much of the control response was suppressed) in experiment [1] stood at 97.8%; in experiment [2], 80.3%; in experiment [3], 95%; in experiment [4] it was 99.6%; in experiment [5], 82.1%.
